Source: patent US20050038113A1, “Valproic acid and derivatives for the combinatorial therapeutic treatment of human cancers and for the treatment of tumor metastasis and minimal residual disease” (G2M Cancer Drugs AG, priority 2001, published 2005)

Key:
Assay in all cases: MTT cell viability assay
Format in all cases: cell-based, Human
[1] = test system: MDA-MB453 breast carcinoma cells; settings: single reagent, 70 h; valproic acid 3 mM, Herceptin 2 μg/ml
Method: (§1) Human MDA-MB468, MDA-MB453 and SKBR3 breast carcinoma cells and A431 squamous cell carcinoma cells were maintained in Dulbecco's modified Eagle's medium (DMEM, BioWhittaker, Verviers, Belgium) supplemented with 10% heat inactivated fetal bovine serum (FBS), 2 mM L-glutamine, 100 units/ml penicillin, and 100 μg/ml streptomycin.
(§2) Tumor cells were seeded in 96 well plates at a density of 1×10^4 cells/well in normal growth medium. Cells were treated for 70 h with valproic acid at a final concentration of 3 mM, or 2 μg/ml of the therapeutic anti-ErbB2 antibody Herceptin™, or 2 μg/ml of the therapeutic anti-EGF receptor antibody c225 (Fan & Mendelsohn, Curr. Opin. Oncol., 10: 67-73, 1998), or a combination of valproic acid with either Herceptin™ or c225 antibodies at the same concentrations. Control cells were grown in the absence of valproic acid or antibodies. 10 μl of 10 mg/ml 3-(4,5-dimethylthiazole-2-yl)-2,5 diphenyltetrazolium bromide (MTT) (Sigma, Deisenhofen, Germany) in PBS were added to each well and the cells were incubated for another 3 h. […] After solubilization of the formazan product, the absorption at 590 nm was determined in a microplate reader (Dynatech, Denkendorf, Germany) and the relative amount of viable cells in comparison to cells cultured without the addition of valproic acid or antibodies was calculated.

[2] = test system: SKBR3 breast carcinoma cells; settings: single reagent, 70 h; valproic acid 3 mM, Herceptin 2 μg/ml
Method: as §1
(§3) Tumor cells were seeded in 96 well plates at a density of 1×10^4 cells/well in normal growth medium. […] After solubilization of the formazan product, the absorption at 590 nm was determined in a microplate reader (Dynatech, Denkendorf, Germany) and the relative amount of viable cells in comparison to cells cultured without the addition of valproic acid or antibodies was calculated. […]
(§4) Tumor cells were seeded in 96 well plates at a density of 1×10^4 cells/well in normal growth medium. […] After solubilization of the formazan product, the absorption at 590 nm was determined in a microplate reader (Dynatech, Denkendorf, Germany) and the relative amount of viable cells in comparison to cells cultured without the addition of valproic acid or antibody-toxins was calculated.

[3] = test system: MDA-MB468 breast carcinoma cells; settings: single reagent, 70 h; valproic acid 3 mM, c225 2 μg/ml
Method: as §1, §2

[4] = test system: A431 squamous cell carcinoma cells; settings: single reagent, 70 h; valproic acid 3 mM, c225 2 μg/ml
Method: as §1, §3, §4

Substance | cell viability [1] | cell viability [2] | cell viability [3] | cell viability [4]
Herceptin™: therapeutic anti-ErbB2 antibody | inhibit the viability | inhibit the viability |  | 
c225: therapeutic anti-EGF receptor antibody |  |  | inhibit the viability | inhibit the viability
